Read-outs that look alike come from different tables or passages of the source.
Assays:
[1] = target: CRAF (Homo sapiens, UniProt P04049); test: CRAF kinase activity assay (ADP-Glo); conditions: read-out: Kinase IC50 (nM) CRAF
[2] = test system: pERK in HCT-116 cells (KRAS G13D); test: Phospho-ERK inhibition (AlphaLISA SureFire Ultra p-ERK 1/2), HCT116; conditions: for HCT116 pERK Ymin %: lowest % inhibition value of the IC50 curve; for IC50: HCT116 cells
How it was run: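 pERK1/2 (Thr202/Tyr204) AlphaLISA, 1 h cpd, 10 conc. 10 μM→0.33 nM, 0.5% DMSO, RPMI-1640 + 5% FBS. Trametinib = 100%, DMSO = 0%. IC50, 4-param fit.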

Sequences of proteins named here, by UniProt entry; tags and fusion partners are left off.
UniProt P04049, whole entry: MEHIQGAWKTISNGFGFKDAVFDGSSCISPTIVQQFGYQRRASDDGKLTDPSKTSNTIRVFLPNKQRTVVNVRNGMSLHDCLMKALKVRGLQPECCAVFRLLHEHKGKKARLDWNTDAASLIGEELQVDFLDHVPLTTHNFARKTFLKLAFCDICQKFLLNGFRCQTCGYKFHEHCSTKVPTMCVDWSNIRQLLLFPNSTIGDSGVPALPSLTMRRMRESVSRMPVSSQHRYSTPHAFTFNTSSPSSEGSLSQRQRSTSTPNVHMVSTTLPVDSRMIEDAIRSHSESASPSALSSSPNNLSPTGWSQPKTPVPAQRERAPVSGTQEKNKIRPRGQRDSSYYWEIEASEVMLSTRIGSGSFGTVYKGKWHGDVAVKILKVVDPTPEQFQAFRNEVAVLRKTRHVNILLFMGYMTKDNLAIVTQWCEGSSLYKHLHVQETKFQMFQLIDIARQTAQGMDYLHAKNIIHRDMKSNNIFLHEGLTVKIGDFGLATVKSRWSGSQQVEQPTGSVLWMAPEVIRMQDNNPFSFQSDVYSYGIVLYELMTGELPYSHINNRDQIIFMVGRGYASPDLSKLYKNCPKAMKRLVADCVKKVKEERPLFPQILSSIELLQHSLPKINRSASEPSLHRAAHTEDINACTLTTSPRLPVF
UniProt P10398, whole entry: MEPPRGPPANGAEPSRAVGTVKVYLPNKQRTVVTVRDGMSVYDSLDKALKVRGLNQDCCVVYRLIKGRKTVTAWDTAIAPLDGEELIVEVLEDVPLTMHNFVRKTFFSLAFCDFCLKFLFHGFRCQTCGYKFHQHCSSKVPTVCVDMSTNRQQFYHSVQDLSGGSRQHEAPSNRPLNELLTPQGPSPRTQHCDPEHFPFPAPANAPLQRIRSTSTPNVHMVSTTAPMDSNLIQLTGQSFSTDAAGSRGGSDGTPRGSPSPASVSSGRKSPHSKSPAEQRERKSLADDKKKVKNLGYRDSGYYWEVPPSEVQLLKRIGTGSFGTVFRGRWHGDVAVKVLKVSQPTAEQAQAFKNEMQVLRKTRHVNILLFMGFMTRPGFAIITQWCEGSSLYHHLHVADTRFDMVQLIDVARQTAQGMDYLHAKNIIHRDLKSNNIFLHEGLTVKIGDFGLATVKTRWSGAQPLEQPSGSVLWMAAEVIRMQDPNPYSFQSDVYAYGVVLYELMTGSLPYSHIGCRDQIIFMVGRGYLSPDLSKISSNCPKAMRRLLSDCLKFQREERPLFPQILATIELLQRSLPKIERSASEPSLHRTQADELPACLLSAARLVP

[3] = test system: pERK in SW480 cells (KRAS G12D); test: Phospho-ERK inhibition (AlphaLISA), SW480; conditions: lowest % inhibition value of the IC50 curve, SW480
Method: All cancer cell lines (A375, A101D, A2058, RKO, HT29 SK-MEL 30, IPC298, HepG2, HCT-116, Lovo, SWV620, SW480, NCI-H358, NCI-H2122, Calu-6, NCIH2087, NCIH1755, NCIH1666 and Mewo) were obtained from ATCC and cultured in RPMI-1640 medium (Gibco) supplemented with 5% heat inactivated fetal bovine serum (FBS, Wisent) at 37° C. under 5% CO2. Cells were maintained in T175 flasks (Greiner). They were passaged by removing the culture medium, washing once in 10 mL of room temperature Phosphate Buffered Saline (PBS; Wisent) and incubating at 37° C. with 2 mL of 0.05% Trypsin (Thermo-Fisher). Trypsin was then inactivated by adding complete growth medium and the cells were then replated in a T175 culture dish at the appropriate dilution. All cell lines were routinely tested for mycoplasma contamination. Tissue type and mutational status of each cell line can be found in Table B.
AlphaLISA® SureFire® Ultra™ p-ERK 1/2 (Thr202/Tyr204) analysis was conducted on cells plated in 100 μL of complete RPMI-1640 growth medium in 96-well flat-bottomed transparent dishes (Costar) at a density indicated in Table C. Cells were maintained overnight at 37° C. under 5% CO2 before treatment with compounds' dilution series for one hour. The cell density in cells/cm^2 corresponds to cell number divided by the area of one well of a 96-well plate ([…]).
In a dilution series 100 μL/well of test substance dilution prepared in complete RPMI-1640 growth media was added to the cells. The dilution series is selected so that ten concentrations cover a range from 10 μM to 0.33 nM. If necessary the initial concentration of 10 μM is increased to 100 μM or lowered to 1 μM (as in the case of A375 and H1666 cells, which are generally more sensitive to the compounds) and further dilution is carried out accordingly. The final concentration of DMSO in the assay is set at 0.5%.
After treatment, media was removed and cells were lysed in 50 μL of 1× AlphaScreen Ultra Lysis Buffer (Perkin Elmer). The AlphaLISA® SureFire® Ultra™ p-ERK 1/2 (Thr202/Tyr2O4) (PerkinElmer) reactions were performed with 5 μL of cell lysate according to the manufacturer's specifications in 384-well proxyplates (Perkin Elmer) followed by overnight incubation of the reactions at room temperature in a humidified chamber. After completion of the reactions, the signals were recorded on an EnVision plate reader (Perkin Elmer) using built in AlphaLISA® settings.
The effect of each compound dilution on the pERK signal was expressed in % inhibition and calculated as follows. An internal 100% inhibition control ([…] trametinib, cat #HY-10999; MedChem Express; CAS #871700-17-3) was included in each plate and used as a measure of pERK background. First, the value obtained for trametinib was subtracted from each data point. The average of DMSO (vehicle) controls (set as 0% inhibition) was established and used to calculate % inhibition: % inhibition=100*(1-((pERK signalcompound)/(pERK signalDMSO)))
The ability of each compound to inhibit pERK signal was expressed as an IC50 value obtained by plotting the inhibition values for each data point of a dilution series and fitting the obtained curves using a log(agonist) versus response-variable slope (four parameters) function using GraphPadPrism (V7.0) or Dotmatics Screening Ultra platform.
When present, paradoxical pERK induction is inferred from the negative % inhibition values observed in the pERK IC50 curves of a compound.

[4] = target: ARAF (Homo sapiens (Human), UniProt P10398); test: ARAF kinase activity assay (AlphaLISA p-MEK 1/2 detection); conditions: read-out: Kinase IC50 (nM) ARAF
Method: Compound preparation: solid samples of each substances in 1 dram vials were suspended in DMSO (Fisher Scientific) at a stock concentration of 20 mM. Stocks were kept at −20° C. and protected from light. If solubility of the compound at 20 mM appeared to be an issue, the initial concentration of the DMSO stock was changed to 10 mM or 5 mM.
In vitro enzymatic reactions were used for evaluating compounds intrinsic activity against BRAF, CRAF and ARAF. For BRAF and CRAF, 0.375 nM of purified GST-tagged kinases (cat #B4062-10 UG and cat #R1656-10 UG respectively from Millipore Sigma) were incubated with 75 nM of kinase-dead MEK1 substrate (cat #40075; BPS Bioscience) in the presence of 10 μM of Ultrapure ATP (cat #V9102; Promega; part V915A) with and without the test compound in a buffer containing 50 mM HEPES pH 7.5, 10 mM MgCl2, 1 mM EDTA, 0.01% Brij-35 and 2 mM DTT. Separate reactions were performed with the MEK1 substrate and ATP as a blank control. ARAF, kinase reactions were rigorously the same with the exception that kinase concentration was raised to 3.75 nM (cat #1768-0000-1; Reaction Biology).
For compound treatment, 5 μL/well of test substance solution are placed in a 384-well proxyplate (Perkin Elmer) and mixed with 2× concentrated kinase reactions. The dilution series is selected so that nine concentrations cover a range from 100 nM to 0.01 nM. […] The final concentration of DMSO in the assay is set at 0.05%.
ARAF kinase reactions were carried out for a total of 2 hours at 30° C. and then stopped by addition of EDTA at a final concentration of 40 mM. Reactions were then detected using the AlphaLISA® SureFire® Ultra™ p-MEK 1/2 (Ser218/222) (PerkinElmer) kit. Reactions were performed with 5 μL of kinase reaction according to the manufacturer's specifications in 384-well proxyplates (Perkin Elmer) followed by overnight incubation of the AlphaLISA® reactions at room temperature in a humidified chamber. After completion of the detection reactions, the signals were recorded on a Synergy Neo2 plate reader (Biotek) equipped with AlphaLISA® filters. The effect of each compound dilution on the pMEK signal generated by ARAF reactions was expressed in % inhibition and calculated as follows. An internal 100% inhibition control (average of luminescence in kinase reactions comprising kinase dead MEK1 substrate alone) was included in each plate to measure of pMEK background and was subtracted from each data point. The average of DMSO (vehicle) controls (set as 0% inhibition) was also established and used to calculate % inhibition: % inhibition=100*(1−((pMEK signalcompound)/(pMEK signalDMSO)))
IC50 values were obtained by plotting the kinase inhibition values and fitting the dose-activity curves using a log(agonist) versus response-variable slope (four parameters) function using either GraphPadPrism (V7.0) or Dotmatics Screening Ultra platform. Standards included in the ARAF kinase assay were Belvarafenib (MedChem Express cat #HY-109080; CAS #1446113-23-0), LXH254 (MedChem Express cat #HY-112089; CAS #1800398-38-2) and BGB283 (cat #HY-18957; CAS #1446090-79-4).

[5] = read-out: HCT116 pERK IC50 in μM, 1 h treatment
[6] = read-out: HCT116 pERK IC50, class symbol

SMILES | IC50 [1] [nM] | IC50 [2, 5] [µM] | IC50 [4] [nM] | IC50 [2, 6] [µM] | HCT116 pERK Ymin % [2] [%] | SW480 pERK (Ymin %) [3] [%]
Cc1c(F)cccc1S(=O)(=O)Nc1ccc(F)c(Nc2ncnc3ccc(-n4cc(C(=O)N(C)CCc5ccccn5)c5ccccc54)nc23)c1F | – | – | 1 to 10 | < 0.5 | – | –
CN1CC2CCC(C1)N2C(=O)c1nn(-c2ccc3ncnc(Nc4c(F)ccc(NS(=O)(=O)c5cccc(Cl)c5Cl)c4F)c3n2)c2ccccc12 | – | – | 1 to 10 | < 0.5 | – | –
O=S(=O)(Nc1ccc(F)c(Nc2ncnc3ccc(-n4cnc5c(-c6cccnc6)cccc54)nc23)c1F)c1cccc(Cl)c1Cl | – | – | 1 to 10 | < 0.5 | – | –
COc1ccc(S(=O)(=O)Nc2ccc(F)c(Nc3ncnc4ccc(-n5cnc6ccccc65)nc34)c2F)cc1OC | > 50 | 1 to 10 | – | – | 1 | 16
O=S(=O)(Nc1ccc(F)c(Nc2ncnc3ccc(-n4cnc5ccccc54)nc23)c1F)c1cc(Cl)ccc1Cl | – | 1 to 10 | – | – | −10 | −2
Cc1c(F)cccc1S(=O)(=O)Nc1ccc(F)c(Nc2ncnc3ccc(-n4cc(C(=O)N5C6CCC5COC6)c5ccccc54)nc23)c1F | – | – | 1 to 10 | 0.5 to 1 | – | –
Cc1ccc(C)c(S(=O)(=O)Nc2ccc(F)c(Nc3ncnc4ccc(-n5cnc6ccccc65)nc34)c2F)c1 | – | 1 to 10 | – | – | −9 | −4
CN(C)CCN(C)S(=O)(=O)c1cn(-c2ccc3ncnc(Nc4c(F)ccc(NS(=O)(=O)c5cccc(Cl)c5Cl)c4F)c3n2)c2ccccc12 | – | – | < 1 | < 0.5 | – | –
O=S(=O)(Nc1ccc(F)c(Nc2ncnc3ccc(-n4cnc5ccccc54)nc23)c1F)c1ccccc1C(F)(F)F | < 10 | 1 to 10 | – | – | −1 | 4
O=S(=O)(Nc1ccc(F)c(Nc2ncnc3ccc(-n4cnc5ccccc54)nc23)c1F)c1ccc2c(c1)OCO2 | – | 1 to 10 | – | – | −4 | 4
Cc1cccc(Cl)c1S(=O)(=O)Nc1ccc(F)c(Nc2ncnc3ccc(-n4cnc5ccccc54)nc23)c1F | – | 1 to 10 | – | – | −9 | 1

Continued, in another order:

IC50 [1] [nM] | IC50 [2, 5] [µM] | IC50 [4] [nM] | IC50 [2, 6] [µM] | SMILES | HCT116 pERK Ymin % [2] [%] | SW480 pERK (Ymin %) [3] [%]
< 10 | 0.5 to 1 | – | – | O=S(=O)(Nc1ccc(F)c(Nc2ncnc3ccc(-n4cnc5ccccc54)nc23)c1F)c1sccc1Cl | 2.6 | 3.3
– | 0.5 to 1 | – | – | CO[C@@H]1CCN(S(=O)(=O)Nc2ccc(F)c(Nc3ncnc4ccc(-n5cnc6ccccc65)nc34)c2F)C1 | 6 | 4.3
– | 0.5 to 1 | – | – | COc1ccc(S(=O)(=O)Nc2ccc(F)c(Nc3ncnc4ccc(-n5cnc6ccccc65)nc34)c2F)c(F)c1 | 5.6 | 5
– | 0.5 to 1 | – | – | Cc1ccc(S(=O)(=O)Nc2ccc(F)c(Nc3ncnc4ccc(-n5cnc6ccccc65)nc34)c2F)c(C)c1 | 6.4 | −3.8
– | 0.5 to 1 | – | – | O=S(=O)(Nc1ccc(F)c(Nc2ncnc3ccc(-n4cnc5ccccc54)nc23)c1F)c1ccc(Cl)cc1Cl | 11 | −2
– | 0.5 to 1 | – | – | O=S(=O)(Nc1ccc(F)c(Nc2ncnc3ccc(-n4cnc5ccccc54)nc23)c1F)c1ccc(F)cc1Cl | 6.9 | 14
– | 0.5 to 1 | – | – | COc1ccc(S(=O)(=O)Nc2ccc(F)c(Nc3ncnc4ccc(-n5cnc6ccccc65)nc34)c2F)c(C)c1 | 2.3 | 15
– | < 0.5 | – | – | O=S(=O)(Nc1ccc(F)c(Nc2ncnc3ccc(-n4cnc5ccccc54)nc23)c1F)c1ccccc1Br | 9.9 | 9.4
> 50 | 0.5 to 1 | – | – | Cc1cccc(S(=O)(=O)Nc2ccc(F)c(Nc3ncnc4ccc(-n5cnc6ccccc65)nc34)c2F)c1C | −2.1 | −8.5
< 10 | < 0.5 | – | – | COc1ccc(S(=O)(=O)Nc2ccc(F)c(Nc3ncnc4ccc(-n5cnc6ccccc65)nc34)c2F)c(Cl)c1 | 4 | −4
< 10 | 0.5 to 1 | – | – | O=S(=O)(Nc1ccc(F)c(Nc2ncnc3ccc(-n4cnc5ccccc54)nc23)c1F)c1c(F)cccc1Cl | 10 | 4.4
< 10 | < 0.5 | – | – | Cc1c(Cl)cccc1S(=O)(=O)Nc1ccc(F)c(Nc2ncnc3ccc(-n4cnc5ccccc54)nc23)c1F | 1.9 | 0.6
< 10 | < 0.5 | – | – | Cc1c(F)cccc1S(=O)(=O)Nc1ccc(F)c(Nc2ncnc3ccc(-n4cnc5ccccc54)nc23)c1F | −8.6 | −10
